Literature values as cited in patent US20190038611A1, “Novel CYP34A-Specific Inhibitors and Methods of Using Same” (THE REGENTS OF THE UNIVERSITY OF CALIFORNIA, priority 2015, published 2019).

Protein sequences, listed by entry. Tags and fused reporters are not part of them. Chains listed by the source or under a name are the forms on record and can include a tag or linker. Residues count along the entry.
UniProt P08684, 23-503 with tags or gaps limits assumed: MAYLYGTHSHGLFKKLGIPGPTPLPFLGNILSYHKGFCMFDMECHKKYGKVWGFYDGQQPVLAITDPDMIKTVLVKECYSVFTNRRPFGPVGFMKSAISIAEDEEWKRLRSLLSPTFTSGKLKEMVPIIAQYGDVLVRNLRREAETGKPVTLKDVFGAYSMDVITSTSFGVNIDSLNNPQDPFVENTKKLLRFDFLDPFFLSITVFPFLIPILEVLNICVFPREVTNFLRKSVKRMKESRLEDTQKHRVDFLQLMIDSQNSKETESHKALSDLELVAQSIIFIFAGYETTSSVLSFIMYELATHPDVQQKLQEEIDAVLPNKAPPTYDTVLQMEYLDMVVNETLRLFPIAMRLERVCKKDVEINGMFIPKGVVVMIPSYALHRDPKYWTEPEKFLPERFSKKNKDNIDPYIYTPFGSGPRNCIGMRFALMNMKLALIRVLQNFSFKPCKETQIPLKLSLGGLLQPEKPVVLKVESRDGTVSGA

Target: CYP3A4 (Homo sapiens, UniProt P08684)
Conditions: determined previously (Sevrioukova and Poulos 2010, 2013); cited from earlier work

## CC(C)c1nc(CN(C)C(=O)N[C@@H](C(=O)N[C@@H](CC[C@H](Cc2ccccc2)NC(=O)OCc2cccnc2)Cc2ccccc2)C(C)C)cs1
  kfast (rate constant for the fast phase of the binding reaction): 7.0 s⁻¹
